Amino acid sequences for entries named in this document (tags omitted). Residues count along the entry.
UniProt P15692, 214-315: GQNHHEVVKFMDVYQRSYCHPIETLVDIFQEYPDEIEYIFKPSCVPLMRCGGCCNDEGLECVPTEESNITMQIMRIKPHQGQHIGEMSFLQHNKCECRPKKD

According to US20210061861A1, “D-PEPTIDIC COMPOUNDS FOR VEGF” (Reflexion Pharmaceuticals, Inc., priority 2019, published 2021):

Molecular target: VEGF-A (Homo sapiens, UniProt P15692)
Experiment: SPR binding of D-peptidic compounds to L-VEGF-A
Parameters: Biotinylated VEGF-A(8-109) was immobilized on a biotin CAPture chip
Details: Table 4, D-peptidic Z and GA domains

- VEGF Binding Affinity (KD, nM): No
Structure (SMILES): CC[C@@H](C)[C@@H](NC(=O)CNC(=O)[C@@H](C)NC(=O)[C@@H](CCCCN)NC(=O)[C@@H](CCCCN)NC(=O)[C@@H](CC(C)C)NC(=O)[C@@H](CCC(=O)O)NC(=O)[C@@H](C)NC(=O)[C@H](NC(=O)[C@@H](C)NC(=O)[C@@H](CC(=O)O)NC(=O)[C@@H](CCC(=O)O)NC(=O)[C@@H](CCCCN)NC(=O)[C@@H](C)NC(=O)[C@@H](CC(N)=O)NC(=O)[C@@H](CCCCN)NC(=O)[C@@H](CC(C)C)NC(=O)[C@@H](CC(C)C)NC(=O)[C@@H](Cc1c[nH]c2ccccc12)NC(=O)[C@@H](CCC(N)=O)NC(=O)[C@@H](CC(=O)O)NC(=O)[C@H](NC(=O)[C@H](N)[C@H](C)O)[C@H](C)CC)[C@H](C)CC)C(=O)N[C@@H](C(=O)N[C@H](CO)C(=O)N[C@H](CC(=O)O)C(=O)N[C@H](Cc1ccccc1)C(=O)N[C@H](Cc1ccc(O)cc1)C(=O)N[C@H](Cc1ccccc1)C(=O)N[C@H](CC(N)=O)C(=O)N[C@H](C)C(=O)N[C@@H](C(=O)N[C@H](CC(N)=O)C(=O)N[C@H](CCCCN)C(=O)N[C@H](C)C(=O)N[C@H](CCCCN)C(=O)N[C@@H](C(=O)N[C@@H](C(=O)N[C@H](CCC(=O)O)C(=O)N[C@H](CCC(=O)O)C(=O)N[C@@H](C(=O)N[C@H](CC(N)=O)C(=O)N[C@H](C)C(=O)N[C@H](CC(C)C)C(=O)N[C@H](CCCCN)C(=O)N[C@H](CC(N)=O)C(=O)N[C@H](CCC(=O)O)C(=O)N[C@@H](C(=O)N[C@H](CC(C)C)C(=O)N[C@H](CCCCN)C(=O)N[C@H](C)C(=O)N[C@H](Cc1c[nH]cn1)C(=O)N[C@H](C)C(=O)O)[C@H](C)CC)C(C)C)C(C)C)[C@H](C)O)[C@H](C)CC)[C@H](C)O [GAdomain wt, tidqwllknakedaiaelkkaGitsdfyfnainkaktveevnalkneilkaha, reference compound]
